Results on 1 molecule are retold here after US10611795B2, “Methods for viral inactivation using eco-friendly detergents” (priority 2013, dated 2020).

Data set [1] in a line: EHS evaluation: basic physical and toxicological characteristics from manufacturer and government literature.
The conditions of data set [2]: cited from earlier work.

The structures appear in SMILES notation. Read-outs that look alike come from different tables or passages of the source.

Take `CCCCOP(=O)(OCCCC)OCCCC`: in data set [1], the “definitive chronic PNEC for freshwater” value is given as “freshwater is 0.037 mg/L”. The “extrapolated marine PNEC” value in data set [1] was 0.0037 mg/L (uncertain). Moreover, in data set [2] (21-day study, Daphnia magna), the “NOECs (chronic toxicity)” value is reported as “NOECs: 0.87 mg/L (21-day”. For the same molecule, the “NOEC (chronic toxicity)” value was “NOEC: 0.82 mg/L (95-day” in data set [2] (95-day early life-stage study, fish) and “NOEC: 0.37 mg/L for Algae” in data set [2] (Algae, biomass in Scenedesmus subspicatus). The “48-hr EC50” value in data set [2] (Chlorella emersonii) is recorded as 48-hr EC50: 5-10 mg/L for. The “96-hr LC50” value is 96-hr LC50: 4.5 mg/L for in data set [2] (Japanese kill fish (Oryzias latipes)); 96-hr LC50: 11.8 mg/L for in data set [2] (Zebra fish Brachydanio rerio, static test); 96-hr LC50: 8.18 mg/L for in data set [2] (fathead minnow (Pimephales promelas), flow through test); 96-hr LC50: 5 mg/L for in data set [2] (rainbow trout (Oncorhynchus mykiss), freshwater). Moreover, in data set [2] (biomass in Scenedesmus subspicatus), the “72-hr EC50” value is on record as 72-hr EC50: 1.1 mg/L for. Further, in data set [2], the “Solubility in water (general characteristics)” value is “Slightly soluble in water”.
